# Measured melting point values of organic chemicals

Data: OPERA 2.9 data sets, kmansouri/OPERA on GitHub.

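OPERA's authors assembled the values from existing databases and did not measure them anew. One number stands for a compound and property, with no spread given. How each value was measured is not recorded, so precision varies. The measured form (salt, isomer or mixture) is not always the one drawn. Unmarked limits or estimates from the upstream databases cannot be ruled out.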

The melting point is given in degrees Celsius.

Listed for CC(=O)Nc1ccc(C)c(N)c1 [Acetamide, N-(3-amino-4-methylphenyl)-]: mp 135 °C.
Listed for Cc1ccc(O)c(F)c1F [2,3-Difluoro-4-methylphenol]: mp 36.5 °C.
Listed for CCCCCCCCCCCCCCCCCCOC(=O)CCCCCCCCCCCCCCCCC [Stearyl stearate]: mp 58.95 °C.
Listed for CC(=O)c1ccc(S(=O)(=O)N2CCCCC2)cc1 [1-[4-(Piperidine-1-sulfonyl)phenyl]ethan-1-one]: mp 140 °C.
Listed for O=[N+]([O-])c1cc(Br)ccc1I [4-Bromo-1-iodo-2-nitrobenzene]: mp 85 °C.
Listed for O=C(O)CCn1nnc2ccccc2c1=O [3-(4-oxo-1,2,3-benzotriazin-3(4H)-yl)propanoic acid]: mp 196 °C.
Listed for NCC(c1cccs1)c1c[nH]c2ccccc12 (stereo not given) [2-(1H-indol-3-yl)-2-thien-2-ylethanamine]: mp 146 °C.
Listed for Nc1ccc(C(=O)Nc2cccnc2)cc1 [4-amino-n-pyridin-3-ylbenzamide]: mp 213 °C.
Listed for Cc1ccccc1NC1=CC=C(Nc2ccccc2C)C2C(=O)c3ccccc3C(=O)C12 (stereo not given) [Solvent Blue 101]: mp 220.8 °C.
Listed for NC1CCN(C(=O)C2CC2)CC1 [(4-Aminopiperidin-1-yl)(cyclopropyl)methanone]: mp 54 °C.
Listed for NC(=S)c1cc2ccccc2oc1=O [2-oxo-2H-chromene-3-carbothioamide]: mp 242 °C.
Listed for CCN(C(=O)Cl)C1CCCCC1 [Cyclohexyl(ethyl)carbamyl chloride]: mp -22 °C.
Listed for O=C(O)C=Cc1ccccc1OC(F)F [3-(2-Difluoromethoxy-phenyl)-acrylic acid]: mp 165 °C.
Listed for NC(=O)CCNCc1ccccc1 [Propanamide, 3-[(phenylmethyl)amino]-]: mp 165 °C.
Listed for O=C(O)COc1ccc(Br)cc1F [(4-Bromo-2-fluorophenoxy)acetic acid]: mp 107 °C.
Listed for O=C(C1Cc2ccccc2CN1)N1CCCC1 (stereo not given): mp 89 °C.
Listed for O=C(O)CCNS(=O)(=O)c1ccc(Cl)cc1 [N-(4-Chlorobenzene-1-sulfonyl)-beta-alanine]: mp 157 °C.
Listed for CCn1c(=O)c2c(ncn2C)n(C)c1=O [1-Ethyltheobromine]: mp 165 °C.
Listed for CCn1c(=S)[nH]c2ccccc21 [1-Ethyl-1H-benzoimidazole-2-thiol]: mp 136 °C.
Listed for NC(=O)Nc1cccc(C(=O)O)c1 [3-Ureidobenzoic acid]: mp 270 °C.
Listed for CN(C1CCCCC1)S(=O)(=O)c1ccc(N)cc1 [4-Amino-N-cyclohexyl-N-methylbenzene-1-sulfonamide]: mp 143 °C.
Listed for Cc1cc(C)c2c(=O)[nH][nH]c2n1 [4,6-Dimethyl-1,2-dihydro-3H-pyrazolo[3,4-b]pyridin-3-one]: mp 250 °C.
Listed for CC(C)N(C)S(=O)(=O)c1ccc(Cl)c(C(=O)O)c1 [2-chloro-5-{[isopropyl(methyl)amino]sulfonyl}benzoic acid]: mp 155 °C.
Listed for O=C(O)CN1C(=O)c2cc(Cl)c(Cl)cc2C1=O: mp 310 °C.
Listed for COc1ccc2[nH]c(SCc3ncc(C)c(OC)c3C)nc2c1 [Omeprazole sulfide]: mp 120.5 °C.
Listed for O=C(CCl)NC1CCOc2ccccc21 (stereo not given) [2-chloro-N-3,4-dihydro-2H-chromen-4-ylacetamide]: mp 87 °C.
Listed for O=C(O)C#Cc1ccc(Cl)cc1 [2-(4-Chlorophenyl)-2-propynoic acid]: mp 192.5 °C.
Listed for Cc1c(C(=O)O)cnn1-c1ccc(Br)cc1 [1-(4-bromophenyl)-5-methyl-1H-pyrazole-4-carboxylic acid]: mp 212 °C.
Listed for O=[N+]([O-])c1cc(C(F)(F)F)ccc1I [1-Iodo-2-nitro-4-(trifluoromethyl)benzene]: mp 35 °C.
Listed for Cn1c(NCCO)nc2ccccc21 [2-(1-Methyl-1H-benzoimidazol-2-ylamino)-ethanol]: mp 76 °C.
Listed for N#Cc1c(CCl)cn2ccccc12 [2-(chloromethyl)indolizine-1-carbonitrile]: mp 144 °C.
Listed for O=[N+]([O-])c1ccc2oc(=S)[nH]c2c1 [5-Nitrobenzo[d]oxazole-2(3H)-thione]: mp 242 °C.
Listed for N#CCC1C(=O)Nc2ccccc21 (stereo not given) [2,3-Dihydro-2-oxo-1H-indole-3-acetonitrile]: mp 162 °C.
Listed for O=C(O)C1CCCN1C(=O)c1cccs1 (stereo not given) [1-(Thiophene-2-carbonyl)proline]: mp 146 °C.
Listed for CNC(=O)c1ccc(S(=O)(=O)Cl)cc1 [4-(Methylcarbamoyl)benzene-1-sulfonyl chloride]: mp 128 °C.
Listed for O=C(O)C1CCN(C(=O)C2CC2)CC1 [1-(cyclopropylcarbonyl)piperidine-4-carboxylic acid]: mp 212 °C.
Listed for O=C1NC(=O)C2(CCCc3sccc32)N1 (stereo not given): mp 268 °C.
Listed for NC(=O)CC(N)=S [3-amino-3-thioxopropanamide]: mp 104 °C.
Listed for O=C(O)c1sc2cc(Cl)cc(Cl)c2c1Cl [3,4,6-Trichloro-1-benzothiophene-2-carboxylic acid]: mp 249 °C.
Listed for Clc1ccc(N2CCCC2)nn1 [3-Chloro-6-(pyrrolidin-1-yl)pyridazine]: mp 116 °C.
Listed for c1ccc(-c2ccc3[nH]ccc3c2)cc1 [5-phenyl-1H-indole]: mp 75 °C.
Listed for O=C(O)c1ccc2c(c1)-c1ccccc1C2 [9H-fluorene-3-carboxylic Acid]: mp 265 °C.
Listed for COc1cc(OC)cc(C(=O)N2CCC(C(=O)O)CC2)c1 [1-(3,5-dimethoxybenzoyl)piperidine-4-carboxylic Acid]: mp 165 °C.
Listed for Cc1ccc(C(C)(C)CC(=O)O)cc1 [3-methyl-3-(4-methylphenyl)butanoic acid]: mp 53.5 °C.
Listed for CC(C)(C)c1ccc(OCCCC(=O)O)cc1 [4-(4-tert-butylphenoxy)butanoic acid]: mp 54 °C.
Listed for O=C(O)C1(c2ccc(F)cc2)CC1 [1-(4-fluorophenyl)cyclopropanecarboxylic acid]: mp 127 °C.
Listed for N#Cc1cccc(Cn2ccnc2)c1 [3-[(1H-Imidazol-1-yl)methyl]benzonitrile]: mp 66 °C.
Listed for S=c1[nH]nc(C2COc3ccccc3O2)o1 (stereo not given): mp 153 °C.
Listed for COc1ccnc(CSc2nc3ccc(OC(F)F)cc3[nH]2)c1OC [Pantoprazole sulfide]: mp 115 °C.
Listed for Nc1ccc(-c2csc(N)n2)cc1 [4-(4-Aminophenyl)-1,3-thiazol-2-amine]: mp 179 °C.
Listed for Cc1ccc(NS(=O)(=O)c2ccc(N)cc2)cc1C [4-amino-N-(3,4-dimethylphenyl)benzenesulfonamide]: mp 151 °C.

4 of these entries, quoted again:

SMILES	name	mp (°C)
Cc1ccc(NS(=O)(=O)c2ccc(N)cc2)cc1C	4-amino-N-(3,4-dimethylphenyl)benzenesulfonamide	151
Nc1ccc(-c2csc(N)n2)cc1	4-(4-Aminophenyl)-1,3-thiazol-2-amine	179
Cc1ccc(O)c(F)c1F	2,3-Difluoro-4-methylphenol	36.5
CCN(C(=O)Cl)C1CCCCC1	Cyclohexyl(ethyl)carbamyl chloride	-22